[ ]: non-standard residue; d: D form. The star is where a group is joined. Stearoyl = CCCCCCCCCCCCCCCCCC(=O)*; Orn = NCCC[C@H](N)C(=O)O
Test system: HeLa pLuc705 cells
Assay: Splicing correction luciferase assay (Kole's assay)
Details: PF14 dissolved in dimethyl formamide or tetrahydrofuran with ethanol or 2-propanol (1/9); 100 nM SCO-705, 500 nM PF14, 24 h; FIG. 4

“PepFect 14 (Stearoyl-AGYLLGKLL[Orn][Orn]LAAAAL[Orn][Orn]LL-NH2) [PF14]” was tested, and the “splicing redirection compared to water-solubilised CPP” value was “more efficiently redirect splicing”.

Source: patent US20240139115A1, “Novel Method for Preparation of Nanoparticles Comprising Cell Penetrating Peptides” (CELLPEPT SWEDEN AB, priority 2021, published 2024)
